Cell viability data for one compound are collected here from the supplement of paper PMC11150407.

Molecules are shown by their SMILES. Most of the strong results are listed elsewhere, so they are rarer here than in the full data.

The subject of this test is MOLM1 and UCSD/AML1 (averaged). The test is described as follows: cell viability relative to DMSO control (POC); higher = less growth inhibition. The note with it: 1 µM; 72 h. How it is done: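 Primary viability screen in the 3q26 EVI1-high AML cell lines MOLM1 and UCSD/AML1 (1.5e3 cells/well, 384-well), compounds at 1 uM for 72 h. ATP CellTiter-Glo read-out given as percent of viable cells over DMSO control (POC), averaged over duplicates. DMSO was the negative control and 5 uM etoposide the positive control. This mapping covers the MicroSource Spectrum and Selleck anticancer libraries (drug names).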
A word on the cell viability: it is the share of living cells, or the viability signal relative to a control. Take `COc1c2ccccc2nc2occc12`: the cell viability turned out to be 95.2%.
